Experimental data as given in patent US20150133436A1, “Bromodomain Inhibitors For Treating Autoimmune And Inflammatory Diseases” (GlaxoSmithKline LLC, priority 2009, published 2015).

Experiments:
TNFα = assay: Lipopolysaccharide (LPS) stimulated whole blood measuring TNFα levels assay; type: cell-based; settings: LPS 200 ng/ml, 24 hours, read-out: pIC50, TNFα levels in LPS stimulated whole blood (converted)
Description: Activation of monocytic cells by agonists of toll-like receptors such as bacterial lipopolysaccharide (LPS) results in production of key inflammatory mediators including TNFα. Such pathways are widely considered to be central to the pathophysiology of a range of auto-immune and inflammatory disorders.
After further incubation for 24 hours at 37 degrees, 140 ul of PBS are added to each well. The plates are sealed, shaken for 10 minutes and then centrifuged (2500 rpm×10 min). 100 ul of the supernatant are removed and TNFα levels assayed by immunoassay (typically by MesoScale Discovery technology) either immediately or following storage at −20 degrees. Dose response curves for each compound was generated from the data and an IC50 value was calculated.

[1] = system: Balb/c male mice given a lethal dose of LPS; assay: In vivo mouse endotoxemia model; settings: 15 mg/kg LPS i.p., compound 10 mg/kg intravenously ninety minutes later
Text: High doses of Endotoxin (bacterial lipopolysaccharide) administered to animals produce a profound shock syndrome including a strong inflammatory response, dysregulation of cardiovascular function, organ failure and ultimately mortality. This pattern of response is very similar to human sepsis and septic shock, where the body's response to a significant bacterial infection can be similarly life threatening.
To test the compounds for use in the invention groups of eight Balb/c male mice were given a lethal dose of 15 mg/kg LPS by intraperitoneal injection. Ninety minutes later, animals were dosed intravenously with vehicle (20% cyclodextrin 1% ethanol in apyrogen water) or compound (10 mg/kg). The survival of animals was monitored at 4 days.

**Q.** Which results are given for `CCNC(=O)C[C@@H]1N=C(c2ccc(Cl)cc2)c2cc(OC)ccc2-n2c(C)nnc21` [Example 2, 2-[(4S)-6-(4-Chlorophenyl)-1-methyl-8-(methyloxy)-4H-[1,2,4]triazolo[4,3-a][1,4]benzodiazepin-4-yl]-N-ethylacetamide]?
**A.** IC50 (TNFα): ≤ 1 µM; Animals surviving at 4 days, percent [1]: (52%); Numbers of animals surviving at 4 days (summed across multiple repeat experiments) ([1]; survivors/total): 24/56
